{"source": "patent US7067500B2", "about": "“Betaines as adjuvants to susceptibility testing and antimicrobial therapy” (priority 1997, dated 2006)", "tested_on": "M. tuberculosis isolate 571/573-BAL", "assay": "Detergent screen for induced susceptibility, BACTEC 12B growth curves", "assay_type": "cell-based, Mycobacterium tuberculosis", "conditions": "detergent approximately 17 μg/ml final, BACTEC 12B supplemented with PANTA or P/cax (ceftriaxone 8 μg/ml)", "data": [{"smiles": "CCCCCCCC/C=C\\CCCCCCCC[N+](C)(C)[O-]", "note": "[Mackamine O2, oleamine oxide]", "values": [{"measurement": "RESULT (effect on growth)", "value": "Complete suppression of growth"}, {"measurement": "RESULT (effect on growth)", "setting": "listed as oleamine oxide", "value": "significantly suppress growth"}]}]}
